# In PubChem BioAssay AID571 (The Scripps Research Institute Molecular Screening Center, 2007):
# Protein sequences, listed by entry. Tags and fused reporters are not part of them. Lines headed by an entry give the natural chain unless they say otherwise; changes in a name come on top.
# UniProt P28566: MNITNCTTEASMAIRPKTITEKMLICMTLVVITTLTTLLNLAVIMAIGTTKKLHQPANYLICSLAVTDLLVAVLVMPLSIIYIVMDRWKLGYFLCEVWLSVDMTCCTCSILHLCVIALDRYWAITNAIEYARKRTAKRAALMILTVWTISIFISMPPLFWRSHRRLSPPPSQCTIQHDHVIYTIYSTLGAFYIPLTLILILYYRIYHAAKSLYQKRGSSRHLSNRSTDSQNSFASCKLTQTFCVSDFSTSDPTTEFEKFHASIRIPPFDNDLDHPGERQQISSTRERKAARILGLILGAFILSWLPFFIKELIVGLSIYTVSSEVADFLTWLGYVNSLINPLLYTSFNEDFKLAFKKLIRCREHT
# The entries are a selection whose mix differs from that of the whole data set. Calls of active or inactive are those of the source.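 The calls were made as follows: active = inhibition above a set limit, the mean inhibition across every tested compound plus 3 SD (cut at about 29% in these data); inactive = the rest.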
# Target: 5-hydroxytryptamine receptor 1E (Homo sapiens) (UniProt P28566)
# Test: blockade of human serotonin 5HT1E receptor – cell-based, HTS, primary screen (AID 571);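 also: signal is the 460 over 535 nm emission ratio of beta-lactamase substrate; 0% = agonist plus DMSO wells and 100% = wells without agonist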
# Conditions: CHO 5-HT1E Ga15 NFAT-bla reporter, FRET, antagonist; at 6 µM; hits give high values
row,SMILES,inhibition
1,O=C(COc1ccccc1)OC1CN2CCC1CC2 (stereo not given),inactive: 3.86%
2,COP1(=S)c2c(C)nn(CCC#N)c2N=C(c2ccc(F)cc2)N1C (stereo not given),inactive: 8.68%
3,O=C(OC1CN2CCC1CC2)C12CC3CC(CC(C3)C1)C2 (stereo not given),inactive: -0.66%
4,CCOP1(=S)c2c(C)nn(CCC#N)c2N=C(c2ccc(F)cc2)N1C (stereo not given),inactive: 8.41%
5,CCOP1(=S)c2c(C)nn(CCC#N)c2N=C(c2ccccc2F)N1C (stereo not given),inactive: -17.2%
6,O=P(Nc1nccs1)(c1ccccc1)c1nc2ccccc2s1 (stereo not given),active: 30.7%
7,Cc1cccc(OCC(=O)OC2CN3CCC2CC3)c1 (stereo not given),inactive: -8.51%
8,Clc1n[nH]nc1-c1nn[nH][15n]1,inactive: -3.65%
9,O=P1(Nc2ccccn2)COc2ccccc2OC1,inactive: -2.98%
10,Cc1ccc(OCC(=O)OC2CN3CCC2CC3)cc1 (stereo not given),inactive: -17.4%
11,O=P1(Nc2ccc(Br)cn2)COc2ccccc2OC1,inactive: 0.02%
12,O=P1(Nc2ncccn2)COc2ccccc2OC1,inactive: 5.15%
13,Cc1nn(-c2ccccc2)c2c1P(=O)(N1CCOCC1)N(C)C(c1ccccc1)=N2 (stereo not given),inactive: -5.53%
14,O=C(OC1CN2CCC1CC2)c1cccc(Cl)c1 (stereo not given),inactive: 0.93%
15,c1nnnn1CCn1cnnn1,inactive: -6.17%
16,O=P(Nc1nccs1)(c1ccccc1)c1ccccc1,inactive: -0.18%
17,O=P1(Nc2nc3ccc(Cl)cc3s2)COc2ccccc2O1 (stereo not given),inactive: 18.1%
18,COC(=O)c1cc2c(s1)N=C(c1ccccc1)N(C)P2(=O)N1CCOCC1 (stereo not given),inactive: -7.04%
19,Cc1c2non([O-])c-2c(C)[n+](=O)[n+]1[O-],inactive: 1.7%
20,CCc1nc2c(n1)c1c(non1O)c1c2no[n+]1[O-],active: 52.5%
